Biological target: human melanin concentrating hormone receptor (MCHR1), mutated (E4Q, A5T) hMCHR1 (Homo sapiens (Human), UniProt Q99705, A5T/E4Q)
Experiment: Radioligand binding assay for assessment of MCHR1 activity ([125I]-MCH competition, HEK-293 membranes)
Settings: Table G

By UniProt entry, the sequences of proteins in these tests, tags left out.
UniProt Q99705, whole entry E4Q/A5T: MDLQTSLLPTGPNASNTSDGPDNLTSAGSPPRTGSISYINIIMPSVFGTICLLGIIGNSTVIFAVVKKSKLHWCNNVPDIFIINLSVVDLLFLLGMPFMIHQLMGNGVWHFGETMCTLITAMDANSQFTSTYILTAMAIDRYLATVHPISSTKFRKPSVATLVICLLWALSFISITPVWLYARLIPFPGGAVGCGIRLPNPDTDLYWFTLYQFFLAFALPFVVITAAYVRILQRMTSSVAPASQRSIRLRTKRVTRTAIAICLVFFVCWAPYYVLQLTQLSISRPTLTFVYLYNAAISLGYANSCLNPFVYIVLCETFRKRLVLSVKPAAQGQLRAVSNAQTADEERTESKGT

Row | Structure (SMILES) | Ki [nM]
1 | COc1cc(N2CC=C(Oc3ccc(-c4ccccc4)cc3)C2=O)ccc1OCCN1CCCC1 [Example 213] | 0.3
2 | COc1cc(N2CC=C(Oc3ccc(-c4ccccc4)cc3)C2=O)ccc1OCCN1CCC[C@H]1CO [Example 214] | 0.4
3 | COc1cc(N2CC=C(Oc3ccc(-c4ccccc4)cc3)C2=O)ccc1OCCN1CCC[C@@H]1CO [Example 215] | 1
4 | COc1cc(N2CC=C(Oc3ccc(-c4ccccc4)cc3)C2=O)ccc1OCCN1CCCCC1 [Example 216] | 0.4
5 | COc1cc(N2CC=C(Oc3ccc(-c4ccccc4)cc3)C2=O)ccc1OCCN1CC(NC(=O)OC(C)(C)C)C1 [Example 218] | 0.7
6 | COc1cc(N2CC=C(Oc3ccc(-c4ccccc4)cc3)C2=O)ccc1OCCN1CC(OC)C1 [Example 219] | 0.7

Same assay, conditions: membranes from HEK-293 cells expressing mutated (E4Q, A5T) hMCHR1; 0.06-0.1 nM [Phe13,[125I]Tyr19]-MCH

Row | Structure (SMILES) | Ki [nM]
7 | COc1cc(N2CC[C@H](Oc3ccc(C4CC4)cc3)C2=O)ccc1OCCN(C)S(=O)(=O)c1cnoc1C [Example 126] | 35
8 | COc1cc(N2CC[C@H](Oc3ccc(C4CC4)cc3)C2=O)ccc1OCCN(C)S(=O)(=O)CC(C)C [Example 127] | 5
9 | COCC(=O)N(C)CCOc1ccc(N2CC[C@H](Oc3ccc(C4CC4)cc3)C2=O)cc1OC [Example 128] | 6
10 | CCOC(=O)N(C)CCOc1ccc(N2CC[C@H](Oc3ccc(C4CC4)cc3)C2=O)cc1OC [Example 129] | 14
11 | COC(=O)N(C)CCOc1ccc(N2CC[C@H](Oc3ccc(C4CC4)cc3)C2=O)cc1OC [Example 130] | 4
12 | CCc1cc(N2CC[C@H](Oc3ccc(C4CC4)cc3)C2=O)ccc1OCCNS(C)(=O)=O [Example 131] | 14
13 | CCc1cc(N2CC[C@H](Oc3ccc(C4CC4)cc3)C2=O)ccc1OCCNC(C)=O [Example 132] | 13
14 | CCc1cc(N2CC[C@H](Oc3ccc(C4CC4)cc3)C2=O)ccc1OCCN(C)S(C)(=O)=O [Example 133] | 5
15 | COc1cc(N2CC[C@@H](Oc3ccc(C4CC4)cc3)C2=O)ccc1O[C@H]1CCNC1 [Example 138, (R)-3-(4-Cyclopropylphenoxy)-1-(3-methoxy-4-((S)-pyrrolidin-3-yloxy)phenyl)pyrrolidin-2-one] | 684
16 | COc1cc(N2CC[C@H](Oc3ccc(C4CC4)cc3)C2=O)ccc1O[C@H]1CCNC1 [Example 139, (S)-3-(4-Cyclopropylphenoxy)-1-(3-methoxy-4-((S)-pyrrolidin-3-yloxy)phenyl)pyrrolidin-2-one] | 5
17 | COc1cc(N2CC[C@@H](Oc3ccc(C4CC4)cc3)C2=O)ccc1O[C@@H]1CCNC1 [Example 140] | 130
18 | COc1cc(N2CC[C@H](Oc3ccc(C4CC4)cc3)C2=O)ccc1O[C@@H]1CCNC1 [Example 141] | 2
19 | COc1cc(N2CC=C(Oc3ccc(C4CC4)cc3)C2=O)ccc1OCCN1CC[C@@H](NC(=O)C(F)(F)F)C1 [Example 153] | 0.4
20 | COc1cc(N2CC=C(Oc3ccc(C4CC4)cc3)C2=O)ccc1OCCN1CC(C#N)C1 [Example 159] | 2.7
21 | COc1cc(N2CC=C(Oc3ccc(C4CC4)cc3)C2=O)ccc1OCCN1CC(S(C)(=O)=O)C1 [Example 160] | 2.3
22 | COc1cc(N2CC=C(Oc3ccc(C4CC4)cc3)C2=O)ccc1OCCN1CC(C)(OC)C1 [Example 161] | 0.5
23 | COc1cc(N2CC=C(Oc3ccc(C4CC4)cc3)C2=O)ccc1OCCN1CC(NC(=O)OC(C)(C)C)C1 [Example 163] | 0.4
24 | CCc1cc(N2CC=C(Oc3ccc(C4CC4)cc3)C2=O)ccc1OCCN1CC(C)(O)C1 [Example 169] | 0.5
25 | CCc1cc(N2CC=C(Oc3ccc(C4CC4)cc3)C2=O)ccc1OCCN1CC(O)(C(F)(F)F)C1 [Example 170] | 5.9
26 | CCc1cc(N2CC=C(Oc3ccc(C4CC4)cc3)C2=O)ccc1OCCN1CC(NC(=O)OC(C)(C)C)C1 [Example 171] | 0.6
27 | CCc1cc(N2CC=C(Oc3ccc(C4CC4)cc3)C2=O)ccc1OCCN1CC(N)C1 [Example 172] | 1.4
28 | CCc1cc(N2CC=C(Oc3ccc(C4CC4)cc3)C2=O)ccc1OCCN1CC[C@H](O)C1 [Example 173] | 0.9

Row | Structure (SMILES) | Ki [nM]
29 | CCc1cc(N2CC=C(Oc3ccc(C4CC4)cc3)C2=O)ccc1OCCN1CC[C@@H](O)C1 [Example 174] | 1.3
30 | CCc1cc(N2CC=C(Oc3ccc(C4CC4)cc3)C2=O)ccc1OCCN1CCOCC1 [Example 175] | 2.2
31 | CCc1cc(N2CC=C(Oc3ccc(C4CC4)cc3)C2=O)ccc1OCCN1CCC[C@H](O)C1 [Example 176] | 0.7
32 | CCc1cc(N2CC=C(Oc3ccc(C4CC4)cc3)C2=O)ccc1OCCN1CCCCC1 [Example 177] | 0.9
33 | O=C1C(Oc2ccc(C3CC3)cc2)=CCN1c1ccc(OCCN2CCCC2)c(OC(F)F)c1 [Example 184, 3-(4-Cyclopropylphenoxy)-1-(3-(difluoromethoxy)-4-(2-(pyrrolidin-1-yl)ethoxy)phenyl)-1H-pyrrol-2(5H)-one] | 0.4
34 | CS(=O)(=O)C1CN(CCOc2ccc(N3CC=C(Oc4ccc(C5CC5)cc4)C3=O)cc2OC(F)F)C1 [Example 186] | 5.2
35 | O=C1C(Oc2ccc(C3CC3)cc2)=CCN1c1ccc(OCCN2CC(O)(C(F)(F)F)C2)c(OC(F)F)c1 [Example 187] | 5.4
36 | N#CC1CN(CCOc2ccc(N3CC=C(Oc4ccc(C5CC5)cc4)C3=O)cc2OC(F)F)C1 [Example 188] | 2.7
37 | COC1CN(CCOc2ccc(N3CC=C(Oc4ccc(C5CC5)cc4)C3=O)cc2OC(F)F)C1 [Example 189] | 0.6
38 | CC1(O)CN(CCOc2ccc(N3CC=C(Oc4ccc(C5CC5)cc4)C3=O)cc2OC(F)F)C1 [Example 190] | 0.6
39 | O=C1C(Oc2ccc(C3CC3)cc2)=CCN1c1ccc(OCCN2CC(O)C2)c(Br)c1 [Example 192] | 0.9
40 | CC1(O)CN(CCOc2ccc(N3CC=C(Oc4ccc(C5CC5)cc4)C3=O)cc2Br)C1 [Example 193] | 0.6
41 | O=C1C(Oc2ccc(C3CC3)cc2)=CCN1c1ccc(OCCN2CCCC2)c(C2CC2)c1 [Example 205, 1-(3-Cyclopropyl-4-(2-(pyrrolidin-1-yl)ethoxy)phenyl)-3-(4-cyclopropylphenoxy)-1H-pyrrol-2(5H)-one] | 0.6
42 | O=C1C(Oc2ccc(C3CC3)cc2)=CCN1c1ccc(OCCN2CCOCC2)c(C2CC2)c1 [Example 206] | 5.5
43 | O=C1C(Oc2ccc(C3CC3)cc2)=CCN1c1ccc(OCCN2CC(O)C2)c(C2CC2)c1 [Example 207] | 0.9
44 | O=C1C(Oc2ccc(C3CC3)cc2)=CCN1c1ccc(OCCN2CC[C@@H](O)C2)c(C2CC2)c1 [Example 208] | 1.7
45 | CC1(O)CN(CCOc2ccc(N3CC=C(Oc4ccc(C5CC5)cc4)C3=O)cc2C2CC2)C1 [Example 209] | 1.2
46 | CC(C)(C)OC(=O)NC1CN(CCOc2ccc(N3CC=C(Oc4ccc(C5CC5)cc4)C3=O)cc2C2CC2)C1 [Example 210] | 0.9
47 | O=C1C(Oc2ccc(C3CC3)cc2)=CCN1[C@H]1C[C@@H](OCCN2CCCC2)C1 [Example 232, 3-(4-Cyclopropylphenoxy)-1-(cis-3-(2-(pyrrolidin-1-yl)ethoxy)cyclobutyl)-1H-pyrrol-2(5H)-one] | 939
48 | O=C1C(Oc2ccc(C3CC3)cc2)=CCN1[C@H]1C[C@@H](OCCN2CCOCC2)C1 [Example 233] | 1780
49 | O=C1C(Oc2ccc(C3CC3)cc2)=CCN1[C@H]1C[C@@H](OCCN2CC(O)(C3CC3)C2)C1 [Example 234] | 654
50 | COC1CN(CCO[C@H]2C[C@@H](N3CC=C(Oc4ccc(C5CC5)cc4)C3=O)C2)C1 [Example 237] | 339

From patent publication US9499482B2, “Pyrrolone or pyrrolidinone melanin concentrating hormone receptor-1 antagonists” (BRISTOL-MYERS SQUIBB COMPANY, priority 2012, dated 2016)
